Measurements from ChEMBL document CHEMBL2407059, “Discovery and characterization of carbamothioylacrylamides as EP2 selective antagonists” (ACS Med Chem Lett, 2013).

Assays:
[1] = species on record: Homo sapiens; experiment: Selectivity index, ratio of KB for human EP4 receptor to KB for human EP2 receptor
[2] = species on record: Homo sapiens; experiment: Selectivity index, ratio of KB for human DP1 receptor to KB for human EP2 receptor
[3] = species on record: Homo sapiens; experiment: Selectivity index, ratio of KB for human IP receptor to KB for human EP2 receptor

| Compound | Selectivity Index [1] | Selectivity Index [2] | Selectivity Index [3] |
| --- | --- | --- | --- |
| COc1cc(NS(=O)(=O)c2ccc(NC(=S)NC(=O)c3sc4cc(F)ccc4c3Cl)cc2)nc(OC)n1 | 7 |  |  |
| COc1ccc(NS(=O)(=O)c2ccc(NC(=S)NC(=O)/C=C/c3ccc(C)cc3)cc2)nn1 | 340 |  |  |
| CCc1nnc(NS(=O)(=O)c2ccc(NC(=S)NC(=O)/C=C/c3ccc(OC)cc3)cc2)s1 | 340 | 311 |  |
| CCc1nnc(NS(=O)(=O)c2ccc(NC(=S)NC(=O)/C=C/c3ccc(F)cc3)cc2)s1 | 443 | 16700 | 22 |
